# Literature values, collected in patent US11707636B2, “Methods and devices for modulating cellular activity using ultrasound” (priority 2008, dated 2023).
# Tested on: blood-brain barrier
# Conditions: mouse, in vivo, iv; cited from earlier work
substance,measurement,value
fluorescein isothiocyanate-dextran,crossing of the blood-brain barrier (BBB) under normal conditions,does not cross
